Only a part is listed here, and it is no random draw. Some structures show a salt or complex split into parts, the way the source records it. Activity calls are given as the source filed them.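 The calls were made as follows: active = calcium-response B-score plate-corrected more than 3 library SD below zero, starting fluorescence within 5 deviations, no agonist response on first addition; inactive = the rest.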

Sequences of proteins named here, by UniProt entry; tags and fusion partners are left off.
UniProt Q96LB2, whole entry: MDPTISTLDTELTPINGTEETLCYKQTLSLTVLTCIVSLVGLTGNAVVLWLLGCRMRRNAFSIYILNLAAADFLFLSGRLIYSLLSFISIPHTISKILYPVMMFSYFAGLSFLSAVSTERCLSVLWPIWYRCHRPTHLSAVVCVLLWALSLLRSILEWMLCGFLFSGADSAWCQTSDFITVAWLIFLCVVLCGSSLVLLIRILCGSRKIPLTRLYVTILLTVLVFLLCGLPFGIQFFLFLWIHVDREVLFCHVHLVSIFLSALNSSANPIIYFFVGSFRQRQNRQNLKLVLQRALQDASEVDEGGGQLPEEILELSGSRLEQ

The target in the test is Mas-related G-protein coupled receptor member X1 (Homo sapiens) (UniProt Q96LB2). Description: blockade of BAM8-22-evoked MrgX1 calcium response – HEK293 cells, Fluo-4 calcium flux, primary screen (AID 588676). Particulars: Fluo-4, BAM8-22 antagonism, at 10 µM. A general note: A change in cytosolic calcium serves as a functional read-out for many receptors and channels.
Take `Cc1ccc(C)c(NP(C)(=O)Oc2ccccc2)c1` (stereo not given): the outcome was inactive.

In the case of `CCCOP(=S)(Nc1nc(N)cc(=O)[nH]1)OCCC`, the result was inactive.

Take `Nc1cccc2c([As](=O)(O)O)cccc12`: the result was inactive.

As for `Cc1ccc(NCCc2c([N+](=O)[O-])cc([N+](=O)[O-])cc2[N+](=O)[O-])cc1`, the outcome was inactive.

As for `Cc1cc(C)cc(OP(C)(=O)Nc2ccccn2)c1` (stereo not given), the outcome was inactive.

For `CP(=O)(Nc1cccc(Br)c1)Oc1ccccc1` (stereo not given), the result was inactive.

For `CCOP(=O)(Nc1cccc2ccccc12)OCC`, the outcome was inactive.

Take `CCOc1ccc(C2=NCC(CBr)S2)cc1` (stereo not given): the result was inactive.

With `O=P1(Nc2nc3ccc(Cl)cc3s2)COc2ccccc2O1` (stereo not given), the outcome was inactive.

On to `CP(=O)(Nc1ccccc1F)Oc1ccccc1` (stereo not given), for which the outcome was inactive.

As to `CC(C)c1ccc(OP(C)(=O)Nc2ccc(SC(F)(F)F)cc2)cc1` (stereo not given), the result was inactive.

For `CC(C)(C)C(=O)NC(Sc1ccccc1)C(Cl)(Cl)Cl` (stereo not given), the outcome was inactive.

Take `O=C(OC1CN2CCC1CC2)c1ccc([N+](=O)[O-])cc1` (stereo not given): the result was inactive.

As for `CC(=O)c1ccc(N2CC2c2ccncc2)cc1` (stereo not given), the result was inactive.

Take `C[C@H]1OP(=O)(Oc2ccccc2)C[C@@H]2O[C@@H]21` (stereo not given in full): the result was inactive.

For `C[C@@H]1C=CCP(=O)(Oc2ccccc2)O1` (stereo not given in full), the outcome was inactive.

On to `O=C(OCCN1CCN(CCOCc2ccccc2)CC1)C(O)(c1ccccc1)c1ccccc1`, for which the result was inactive.

As for `CC(=O)Nc1ccc(Oc2c([N+](=O)[O-])cc([N+](=O)[O-])cc2[N+](=O)[O-])cc1`, the result was inactive.

For `CC(=O)Nc1ccc([As](=O)(O)O)c(O)c1`, the result was inactive.

Consider `COc1ccc2c(c1O)-c1c(O)c(OC)cc3c1[C@H](C2)[N+](C)(C)CC3.O=[N+]([O-])c1cc([N+](=O)[O-])c([O-])c([N+](=O)[O-])c1[O-]`, for which the outcome was inactive.

`O=C(NC1CCS(=O)(=O)C1)NP(=S)(Oc1ccccc1)Oc1ccccc1` (stereo not given): the outcome was inactive.

`CCNC(=S)/N=C(\N)N[N+](=O)[O-]`: the result was inactive.

For the compound `CCOC(=O)NC(Sc1ccccc1)C(Cl)(Cl)Cl` (stereo not given), the result was inactive.

On to `Cc1ccc(NP(=O)(Oc2cccc(C)c2)Oc2cccc(C)c2)nc1`, for which the outcome was inactive.

In the case of `c1ccc(-c2nn[nH]n2)c(-c2nn[nH]n2)c1`, the outcome was inactive.

On to `CCOC(=O)c1ccc(NP(C)(=O)Oc2ccc(F)cc2)cc1` (stereo not given), for which the result was inactive.

`COc1ccc(OP(C)(=O)Nc2ccc(SC(F)(F)F)cc2)cc1` (stereo not given): the result was inactive.

In the case of `Cc1ccc(OP(=O)(Nc2ccccn2)Oc2ccc(C)cc2)cc1`, the result was inactive.

Turning to `CC(=O)NC(SC(=S)N(CC(C)C)CC(C)C)C(Cl)(Cl)Cl` (stereo not given), the outcome was inactive.

Take `COC(=O)c1cc2c(s1)N=C(c1ccccc1)N(C)P2(=O)N1CCOCC1` (stereo not given): the outcome was inactive.

Turning to `CCC(=O)N1C2C3N(C(=O)CC)C1C1N(C(=O)CC)C(C(N1C(=O)CC)N3C(=O)CC)N2C(=O)CC`, the result was inactive.

Turning to `CCN(CC)CCCOC(=O)C(O)(c1ccccc1)C1CCCCC1` (stereo not given), the result was inactive.

In the case of `O=C(OC1CN2CCC1CC2)c1ccccc1` (stereo not given), the result was inactive.

In the case of `CP(=O)(Nc1ccccc1)Oc1ccc(F)cc1` (stereo not given), the outcome was inactive.

As for `O=[N+]([O-])c1cc([N+](=O)[O-])c(OC2CCCCC2O)c([N+](=O)[O-])c1` (stereo not given), the outcome was inactive.

For the compound `CCCCCOc1ccc(NP(C)(=O)Oc2ccc(Cl)cc2Cl)cc1` (stereo not given), the outcome was inactive.

Consider `CN(C)C(=O)Oc1noc2ccccc12`, for which the outcome was inactive.

As for `Cc1ccccc1OP(=O)(Nc1ccccn1)Oc1ccccc1C`, the outcome was inactive.

Take `COc1ccc(OP(C)(=O)Nc2cccc(Br)c2)cc1` (stereo not given): the result was inactive.

For `CN(C)C1(CNC(=O)c2ccc(Cl)c(S(N)(=O)=O)c2)CCCCC1`, the result was inactive.

As for `O=P(Nc1ccccn1)(c1ccc(Br)cc1)c1ccc(Br)cc1`, the result was inactive.

As to `C[C@H]1OP(=O)(Oc2ccccc2)[C@H](O)[C@H](O)[C@H]1N=[N+]=[N-]` (stereo not given in full), the result was inactive.

As for `O=P(Nc1nc2ccccc2s1)(c1ccccc1)c1ccccc1`, the result was inactive.

For the compound `CN(C)CCOC(=O)C(O)(c1ccccc1)C1CCCCC1` (stereo not given), the outcome was inactive.

Regarding `COc1ccc(NP(C)(=O)Oc2ccccc2OC)cc1` (stereo not given), the result was inactive.

For the compound `O=[N+]([O-])c1ncn(CCn2cnc([N+](=O)[O-])n2)n1`, the result was inactive.

Turning to `O=[N+]([O-])c1ccc(OP2(=O)COCCO2)cc1` (stereo not given), the result was inactive.

As for `CC(=O)NC(SC(=S)N(C)C)C(Cl)(Cl)Cl` (stereo not given), the result was inactive.

For the compound `O=[N+]([O-])c1cc([N+](=O)[O-])c(NCC2CCS(=O)(=O)C2)c([N+](=O)[O-])c1` (stereo not given), the result was inactive.

`O=[As](O)(c1ccccc1)c1ccc(O)cc1`: the result was inactive.

`C(Cc1nn[nH]n1)Cc1nn[nH]n1`: the outcome was inactive.

On to `Nc1ccc([As](=O)(O)c2ccc([N+](=O)[O-])cc2)cc1`, for which the outcome was inactive.

On to `O=C(OC1CN2CCC1CC2)c1cccc(Cl)c1` (stereo not given), for which the result was inactive.

For the compound `CP(=O)(Nc1ccc(SC(F)(F)F)cc1)Oc1ccc(F)cc1` (stereo not given), the outcome was inactive.

Consider `O=P(Nc1nccs1)(c1ccccc1)c1ccccc1`, for which the outcome was inactive.

In the case of `CC(C)C(=O)NC(Sc1ccccc1)C(Cl)(Cl)Cl` (stereo not given), the result was inactive.

On to `CCOP(C)(=S)SCC(=O)NC(C)(CC)C(=O)O` (stereo not given), for which the result was inactive.

Regarding `c1nnnn1CCn1cnnn1`, the result was inactive.

In the case of `CP(=O)(Nc1ccc2c(c1)OCCO2)Oc1ccccc1` (stereo not given), the outcome was inactive.

`Cc1ccccc1NP(C)(=O)Nc1ccccc1C`: the result was inactive.

`COc1ccc(C2=NCC(CBr)S2)cc1` (stereo not given): the result was inactive.

As to `COc1ccc(OP(C)(=O)Nc2ccc(Br)cc2)cc1` (stereo not given), the outcome was inactive.

On to `CCN(CC)CC(O)COC(=O)C(O)(c1ccccc1)C1CCCCC1` (stereo not given), for which the result was inactive.

As for `O=C(OCCCN1CCCC1)C(O)(c1ccccc1)C1CCCCC1` (stereo not given), the result was inactive.

With `CC(=O)N1C2C3N(C(C)=O)C1C1N(C(C)=O)C(C(N1C(C)=O)N3C(C)=O)N2C(C)=O`, the outcome was inactive.

Regarding `O=[N+]([O-])c1cccc2n[nH]nc12`, the result was inactive.

In the case of `COc1ccccc1OP(C)(=O)Nc1c(C)n(C)n(-c2ccccc2)c1=O` (stereo not given), the result was inactive.

As to `CCc1ccc(OP(C)(=O)Nc2cccnc2)cc1` (stereo not given), the result was inactive.

`O=[N+]([O-])c1cc([N+](=O)[O-])c(CCNc2ccccc2)c([N+](=O)[O-])c1`: the outcome was inactive.

For `Cc1ccc(NP(=O)(Oc2ccccc2)Oc2ccccc2)nc1`, the result was inactive.

Regarding `CP(=O)(Oc1ccccc1)N1CCOC1=O` (stereo not given), the result was inactive.

Turning to `C[N+]1=C2C=CC=CC=C2SC12C([N+](=O)[O-])=CC([N+](=O)[O-])=C[C-]2[N+](=O)[O-]` (stereo not given), the result was inactive.

Regarding `COc1ccccc1OP(C)(=O)Nc1ccccc1Br` (stereo not given), the outcome was inactive.

On to `Nc1ccc([As](=O)(O)c2ccc(N)cc2)cc1`, for which the outcome was inactive.

As for `CC(C)(C)c1ccc(OP(C)(=O)O)cc1`, the outcome was inactive.

Regarding `CP(=O)(Nc1ccc(Cl)cc1)Oc1ccc(F)cc1` (stereo not given), the result was inactive.

As for `CCN(/C(=N/P(=O)(N1CCOCC1)N1CCOCC1)N1CCOCC1)c1ccc(OC)cc1`, the outcome was inactive.

Consider `CN(C)C(=O)OCCc1n(C)cc[n+]1C`, for which the result was inactive.

Regarding `CC(C)=N/N=C(\N)N[N+](=O)[O-]`, the result was inactive.

As for `CN(C)C(=O)c1c([N+](=O)[O-])cc([N+](=O)[O-])cc1[N+](=O)[O-]`, the outcome was inactive.

Turning to `CC1CCN(C(=O)Oc2c(Cl)cc(Cl)c3cccnc23)CC1`, the outcome was inactive.

In the case of `Nc1ccc2c(ccc3cccnc32)n1.O=[N+]([O-])c1cc([N+](=O)[O-])c(O)c([N+](=O)[O-])c1`, the result was inactive.

As to `O=C(Nc1cc([As](=O)(O)O)ccc1O)c1ccccc1`, the outcome was inactive.

With `CCOC(=O)c1ccc(NP(C)(=O)Oc2ccc(Cl)cc2)cc1` (stereo not given), the result was inactive.

Take `CP(=O)(OC12CC3CC(CC(C3)C1)C2)OC12CC3CC(CC(C3)C1)C2`: the outcome was inactive.

Turning to `CC(C)(C)C(=O)NC(Sc1ccncn1)C(Cl)(Cl)Cl` (stereo not given), the result was inactive.

Turning to `O=[N+]([O-])c1ncn(CCn2ncnc2[N+](=O)[O-])n1`, the outcome was inactive.

Turning to `O=[N+]([O-])c1cccc(NC2=NCC(CBr)S2)c1` (stereo not given), the outcome was inactive.

In the case of `O=C(O)CNc1ccc([As](=O)(O)O)cc1`, the outcome was inactive.

For `CC(=O)Nc1ccc([As](=O)(O)O)cc1`, the result was inactive.

Take `O=C(O)c1ccccc1[As](=O)(O)O`: the result was inactive.

Consider `O=P(Nc1nc2ccc(Cl)cc2s1)(c1ccccc1)c1ccccc1`, for which the outcome was inactive.

Take `Cc1cc(C)cc(OP(C)(=O)Nc2cccc(C(F)(F)F)c2)c1` (stereo not given): the outcome was inactive.

Regarding `COc1ccccc1OP(C)(=O)Nc1ccc(C)c(C)c1` (stereo not given), the outcome was inactive.

Turning to `CN(C(=O)Cc1ccc(Cl)c(Cl)c1)[C@H]1CCCC[C@@H]1N1CCCC1`, the result was inactive.

In the case of `Cc1ccc(NP(=O)(Oc2ccccc2F)Oc2ccccc2F)nc1`, the outcome was inactive.

On to `Cc1cc(SC(NC(=O)c2ccc(F)cc2)C(Cl)(Cl)Cl)ncn1` (stereo not given), for which the outcome was inactive.

As to `CCOP(=O)(Nc1ccccc1)OCC`, the result was inactive.

Take `COc1ccc(OP(C)(=O)Nc2ccccc2Br)cc1` (stereo not given): the outcome was inactive.

For the compound `Cc1nc2ccc3ccccc3c2o1.O=[N+]([O-])c1cc([N+](=O)[O-])c(O)c([N+](=O)[O-])c1`, the result was inactive.

As to `O=[N+]([O-])c1cc([N+](=O)[O-])c(CCN2CCOCC2)c([N+](=O)[O-])c1`, the result was inactive.

With `CCN(N=Nc1nonc1N)c1nonc1N`, the result was inactive.

As for `CP(=O)(Nc1ccc(Cl)cc1Cl)Oc1ccccc1` (stereo not given), the result was inactive.

On to `CP(=O)(OCCOc1ccccc1)OCCOc1ccccc1`, for which the result was inactive.

On to `Nc1cccc2ccc([As](=O)(O)O)cc12`, for which the outcome was inactive.

Take `NC(=O)c1cc([N+](=O)[O-])cc([N+](=O)[O-])c1N`: the outcome was inactive.

For the compound `Cc1ccc(N/C(=N/P(=O)(N2CCOCC2)N2CCOCC2)N2CCOCC2)cc1`, the result was inactive.

`CN(C(=O)Cc1ccc(Cl)c(Cl)c1)[C@H]1CCCC[C@H]1N1CCCC1`: the outcome was inactive.

For the compound `COc1ccccc1OP(C)(=O)Nc1ccc(Br)cc1` (stereo not given), the result was inactive.

`Cc1ccc(OP(=O)(Nc2nccs2)Oc2ccc(C)cc2)cc1`: the result was inactive.

As to `COc1ccccc1OP(=O)(Nc1ccc(C)cn1)Oc1ccccc1OC`, the outcome was inactive.

For `COc1ccc(OP(C)(=O)Nc2ccccn2)cc1` (stereo not given), the result was inactive.

As for `CN1CCCC(OC(=O)C(c2ccccc2)c2ccccc2)C1` (stereo not given), the result was inactive.

Regarding `CN(C)CCOC(=O)C(O)(c1ccccc1)C1CCCC1` (stereo not given), the result was inactive.

Take `Clc1ccc(Cl)c(NC2=NCC(CBr)S2)c1` (stereo not given): the outcome was inactive.

As to `Nc1cc(N)c2nonc2c1[N+](=O)[O-]`, the result was inactive.

As for `Cc1c(NP(C)(=O)Oc2ccc(C(C)C)cc2)c(=O)n(-c2ccccc2)n1C` (stereo not given), the outcome was inactive.

As to `O=[N+]([O-])c1cc([N+](=O)[O-])c(Nc2ccccn2)c([N+](=O)[O-])c1`, the result was inactive.

For `CC(C)CC(=O)NC(Sc1ccc(Cl)cc1)C(Cl)(Cl)Cl` (stereo not given), the result was inactive.

Take `O=C(NC(Sc1ccncn1)C(Cl)(Cl)Cl)c1ccccc1` (stereo not given): the outcome was inactive.

`Cc1c2non([O-])c-2c(C)[n+](=O)[n+]1[O-]`: the outcome was inactive.

In the case of `Oc1ccccc1CNc1ccccn1`, the outcome was inactive.

Regarding `COc1ccccc1OP(C)(=O)Nc1ccc(C)cc1C` (stereo not given), the result was inactive.

Regarding `CP(=O)(Nc1ccccn1)Oc1ccccc1` (stereo not given), the outcome was inactive.

With `CCc1ccc(OP(C)(=O)O)cc1`, the outcome was inactive.

These data come from PubChem BioAssay AID588676 (Johns Hopkins Ion Channel Center, 2011).
